Source: article PMC6718548, “Tau pathology reduction with SM07883, a novel, potent, and selective oral DYRK1A inhibitor: A potential therapeutic for Alzheimer's disease” (Aging Cell, 2019)

Target: T1, DYRK1a (Homo sapiens, UniProt Q13627)
T1 construct: purchased Thermo Fisher Scientific
Assay: DYRK1A kinase assay (Z-Lyte / SelectScreen IC50)
Assay type: biochemical
Settings: Suppl. Table 2 comparison with commercially available inhibitors

IC50: 70 nM
SMILES: CCN1/C(=C/C(C)=O)Sc2ccc(OC)cc21 [TG003]
